Measurements from US12180192B2, “Modulators of THR-β and methods of use thereof” (ALIGOS THERAPEUTICS, INC., priority 2019, dated 2024).

What was measured:
[1] = test system: CPT1A gene expression in Huh-7 cells; experiment: Huh-7 differential gene expression, CPT1A RT-qPCR (Assay 3); assay type: cell-based; settings: Homo sapiens, Huh-7, 24 h, read-out: Activity category Assay 3 Emax
Procedure: Huh-7 Differential Gene Expression (Assay 3)
Fetal bovine serum (FBS) was incubated with washed resin (50 mg resin/mL FBS; resin weight is dry weight of resin prior to washing) for 5 hr at room temperature on a rotor. The FBS was separated from the resin via centrifugation and incubated with new, washed resin for 18 h at room temperature on a rotor.
Cell Culture and Drug Treatment
Huh-7 cells were cultured in DMEM (10-013-CM, Corning) supplemented with 10% FBS and 1% Pen-Strep at 37° C. under 5% C02. When 70-80% confluence was reached, the cells were removed by trypsinization. The medium was aspirated from the cell culture dish, the cell monolayer was washed with 1×PBS, and 0.05% trypsin, 0.53 mM EDTA (25-052-CV, Corning) solution was added to the dish. After 3 min incubation, the cells were detached completely by repeatedly pipetting solution onto the monolayer. Equal volume of DMEM supplemented with 10% rFBS and 1% Pen-Strep (TH-depleted DMEM) was added to the dish to inactivate the trypsin. The cell suspension was centrifuged at 350×g at room temperature for 3 min. The supernatant was aspirated out and the cell pellet was resuspended in TH-depleted DMEM. […] After 24 hr incubation, the media was replaced with treatment media. […]
ΔRn values were obtained from the qPCRsoft384 1.0 software and CPT1A gene expression was quantified via the 2-ΔΔCt method. […]

THR beta = molecular target: T1, THR beta (Homo sapiens, UniProt P10828); experiment: HEK293T THR beta/RXR luciferase reporter assay (Assay 2); assay type: cell-based; settings: HEK-293T, read-out: Activity category Assay 2 THRβ (Emax)
T1 construct: expressed in transfected cells; host or cells: HEK293T (ATCC CRL-3216)
T1 sequence (P10828 1-461): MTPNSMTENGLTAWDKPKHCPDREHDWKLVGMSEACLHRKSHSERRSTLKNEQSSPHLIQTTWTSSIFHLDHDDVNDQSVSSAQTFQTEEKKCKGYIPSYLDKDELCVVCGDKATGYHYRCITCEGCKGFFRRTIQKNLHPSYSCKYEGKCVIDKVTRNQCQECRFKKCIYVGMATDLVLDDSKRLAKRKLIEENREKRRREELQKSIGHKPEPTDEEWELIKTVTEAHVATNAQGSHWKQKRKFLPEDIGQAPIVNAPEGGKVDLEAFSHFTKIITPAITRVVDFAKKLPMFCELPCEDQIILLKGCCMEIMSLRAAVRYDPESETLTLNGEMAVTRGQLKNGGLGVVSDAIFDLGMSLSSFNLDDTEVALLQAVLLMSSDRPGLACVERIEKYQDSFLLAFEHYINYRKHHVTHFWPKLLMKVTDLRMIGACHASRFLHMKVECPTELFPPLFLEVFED
T1 sequence (P19793 1-462 partner): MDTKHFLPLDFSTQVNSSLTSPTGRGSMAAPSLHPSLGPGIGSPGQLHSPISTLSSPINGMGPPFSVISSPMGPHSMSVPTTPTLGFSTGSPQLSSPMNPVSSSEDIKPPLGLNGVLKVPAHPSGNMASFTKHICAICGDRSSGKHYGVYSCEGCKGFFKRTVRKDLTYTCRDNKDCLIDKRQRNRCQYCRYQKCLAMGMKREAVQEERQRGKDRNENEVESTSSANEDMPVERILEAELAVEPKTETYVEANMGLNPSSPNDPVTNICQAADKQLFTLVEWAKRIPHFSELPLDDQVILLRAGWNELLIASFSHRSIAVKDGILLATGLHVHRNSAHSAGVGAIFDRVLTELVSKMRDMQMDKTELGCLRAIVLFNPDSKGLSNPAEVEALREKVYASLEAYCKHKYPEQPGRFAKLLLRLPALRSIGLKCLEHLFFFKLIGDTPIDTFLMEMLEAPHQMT
Procedure: HEK293T Reporter THRalpha/Beta/RXR Reporter Assay (Assay 2)
The purpose of this assay is to evaluate the effect of compounds on the thyroid hormone nuclear receptor pathway in HEK293T cells. To this end, HEK293T cells are transiently transfected with a luciferase reporter under the control of the thyroid response element (TRE), an RXR expression plasmid and either a THR alpha or THR beta expression plasmid. Transfected cells are stimulated with test compounds for 18-24 hours before activation of the thyroid hormone pathway is measured via a luciferase read-out.
Procedure. […] Ten five-fold dilutions of test compounds are prepared in DMSO and 30 nL are dispensed to the cells. […] Approximately 18-24 h after compound addition, 384 well plates are allowed to adjust to rt, 30 μL One-Glo (Promega catalog #E6120) is added to each well and luminescence is measured on a Perkin Elmer Enspire plate reader. Percent agonism is calculated using the following equation: 100× (sample-negative control)/(positive control-negative control).

[2] = molecular target: T2, human thyroid receptor beta ligand-binding domain (LBD) (Homo sapiens, UniProt P10828); experiment: TR-FRET thyroid receptor beta coactivator assay (THR biochemical assay, Assay 1); settings: read-out: Activity category Assay 1 THRβ (Emax)
T2 construct: purchased Invitrogen
T2 sequence (P10828 217-461 limits assumed): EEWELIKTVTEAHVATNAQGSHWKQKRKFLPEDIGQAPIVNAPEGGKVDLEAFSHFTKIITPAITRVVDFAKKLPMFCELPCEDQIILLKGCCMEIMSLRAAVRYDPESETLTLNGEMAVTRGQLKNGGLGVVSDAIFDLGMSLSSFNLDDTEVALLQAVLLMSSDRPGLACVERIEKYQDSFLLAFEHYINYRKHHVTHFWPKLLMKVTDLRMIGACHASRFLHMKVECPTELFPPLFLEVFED
From the text: The TR-FRET thyroid receptor beta coactivator assay was used with slight, optimized modifications of the manufacturer's protocol (Invitrogen). The assay uses a terbium-labeled anti-GST antibody, a glutathione-S-transferase (GST) tagged human thyroid receptor, beta or alpha, ligand-binding domain (LBD), and a fluorescein labeled SRC2-2 coactivator peptide. […] The energy transfer is detected as an increase in the fluorescence emission of the fluorescein acceptor, and a decrease in the fluorescence emission of the terbium donor. The assay is performed in a 384-well black plate in a final volume of 20 μL. Serial dilution of various test agonists was performed in DMSO (1% final DMSO concentration) and added to the test plate. Thyroid receptor beta LBD is added to the plate at a final concentration of 1 nM, followed by the mixture of the fluorescein labeled SRC2-2 coactivator peptide, and the terbium-labeled anti-GST antibody at final concentrations of 200 nM and 2 nM respectively. The assay is incubated for 1 hr at rt protected from light.

## CC(C)c1cc(Oc2c(Cl)cc(-n3nc(N)c(=O)[nH]c3=O)cc2Cl)n[nH]c1=O [Compound 10, 6-amino-2-[3,5-dichloro-4-[(5-isopropyl-6-oxo-1H-pyridazin-3-yl)oxy]phenyl]-4H-1,2,4-tri-azine-3,5-dione]
[1]
  Emax: 50 to 75%

## CC(C)c1cc(Oc2c(Cl)cc(-n3nc(CC(=O)O)c(=O)[nH]c3=O)cc2Cl)n[nH]c1=O [Compound 13, 2-(2-(3,5-dichloro-4-((5-isopropyl-6-oxo-1,6-dihydropyridazin-3-yl)oxy)phenyl)-3,5-dioxo-2,3,4,5-tetra-hydro-1,2,4-triazin-6-yl)acetic acid]
THR beta
  Emax: > 75%
[2]
  Emax: < 50%
